Reference: patent US6841682B2, “Heterocycles useful in the treatment of benign prostatic hyperplasia” (Janseen Pharmaceutica N.V., priority 1997, dated 2005)

Amino acid sequences for entries named in this document (tags omitted).
UniProt P35348, whole entry: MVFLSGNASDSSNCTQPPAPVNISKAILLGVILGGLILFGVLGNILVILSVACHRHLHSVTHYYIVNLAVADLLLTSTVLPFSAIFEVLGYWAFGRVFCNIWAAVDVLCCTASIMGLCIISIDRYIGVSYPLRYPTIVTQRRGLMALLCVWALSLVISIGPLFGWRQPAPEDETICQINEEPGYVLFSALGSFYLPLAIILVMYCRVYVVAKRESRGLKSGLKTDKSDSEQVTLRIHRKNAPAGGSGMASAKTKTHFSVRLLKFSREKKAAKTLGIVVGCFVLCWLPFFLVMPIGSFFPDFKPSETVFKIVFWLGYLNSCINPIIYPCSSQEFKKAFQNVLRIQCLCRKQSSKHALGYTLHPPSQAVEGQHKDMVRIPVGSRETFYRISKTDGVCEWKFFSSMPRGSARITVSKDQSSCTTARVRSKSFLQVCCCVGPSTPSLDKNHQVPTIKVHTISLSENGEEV
UniProt P35368, whole entry: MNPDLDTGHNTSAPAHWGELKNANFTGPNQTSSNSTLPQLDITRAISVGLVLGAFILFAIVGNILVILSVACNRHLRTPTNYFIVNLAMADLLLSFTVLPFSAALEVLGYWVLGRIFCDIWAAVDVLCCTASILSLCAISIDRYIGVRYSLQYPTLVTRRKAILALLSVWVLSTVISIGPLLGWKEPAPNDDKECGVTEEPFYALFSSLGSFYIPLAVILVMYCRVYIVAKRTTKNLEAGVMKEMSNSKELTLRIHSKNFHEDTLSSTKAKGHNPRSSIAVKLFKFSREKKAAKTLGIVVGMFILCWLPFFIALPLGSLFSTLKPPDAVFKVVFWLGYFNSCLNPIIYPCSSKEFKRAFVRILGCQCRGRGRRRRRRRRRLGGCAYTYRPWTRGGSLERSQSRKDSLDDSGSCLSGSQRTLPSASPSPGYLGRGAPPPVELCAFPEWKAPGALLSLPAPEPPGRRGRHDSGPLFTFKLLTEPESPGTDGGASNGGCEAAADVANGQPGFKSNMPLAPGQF
UniProt P25100, whole entry: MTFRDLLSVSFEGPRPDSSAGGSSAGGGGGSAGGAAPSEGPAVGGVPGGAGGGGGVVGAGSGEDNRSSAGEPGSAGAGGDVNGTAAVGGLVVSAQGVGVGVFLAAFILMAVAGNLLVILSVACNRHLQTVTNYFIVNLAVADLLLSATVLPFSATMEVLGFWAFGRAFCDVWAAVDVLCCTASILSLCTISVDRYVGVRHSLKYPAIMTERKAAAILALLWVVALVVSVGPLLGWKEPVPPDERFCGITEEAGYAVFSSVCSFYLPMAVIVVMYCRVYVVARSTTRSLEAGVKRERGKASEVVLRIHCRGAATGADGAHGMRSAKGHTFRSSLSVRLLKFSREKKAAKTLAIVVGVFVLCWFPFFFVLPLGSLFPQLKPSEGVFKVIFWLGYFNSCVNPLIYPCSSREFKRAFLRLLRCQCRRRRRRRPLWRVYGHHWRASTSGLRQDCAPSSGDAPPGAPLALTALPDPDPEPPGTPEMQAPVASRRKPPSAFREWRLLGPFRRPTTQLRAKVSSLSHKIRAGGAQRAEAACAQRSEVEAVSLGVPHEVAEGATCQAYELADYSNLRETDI

How the values were obtained:
[1] = target: α1a-AR (Homo sapiens, UniProt P35348); experiment: radioligand ([125I]-HEAT) receptor binding assay, COS cell membranes, α1a-AR
[2] = target: α1b-AR (Homo sapiens, UniProt P35368); experiment: radioligand ([125I]-HEAT) receptor binding assay, COS cell membranes, α1b-AR
[3] = target: α1d-AR (Homo sapiens, UniProt P25100); experiment: radioligand ([125I]-HEAT) receptor binding assay, COS cell membranes, α1d-AR; details: read-out: α1d IC50, Tables A-J, [125I]-HEAT 50 pM
[4] = target: α1c (Homo sapiens, UniProt P25100); experiment: α1c screen (as named in the preparative examples); details: read-out: activity in the α1c screen; stated in the preparative example
From the text: The first assay tested the ability of compounds of Formula I to bind to membrane bound receptors α1a-AR, α1b-AR and α1d-AR.
The DNA sequences of the three cloned human α1-AR subtypes have been published. […] We used published DNA sequence information to design-primers for use in RT-PCR amplification of each subtype to obtain cloned cDNAs. Human poly A+ RNA was obtained from commercially available sources and included hippocampus and prostate samples, sources which have been cited in the literature. For the primary screen a radio ligand binding assay was used which employed membrane preparations from cells expressing the individual cloned receptor cDNAs. Radiolabeled ligands with binding activity on all three subtypes (non-selective) are commercially available ([125I]-HEAT, [3H]-prazosin). […]
The three α1-AR subtypes (a, b, d) were transfected into COS cells using a standard DEAE-dextran procedure with a chloroquine shock. […] The protein concentration was determined following membrane solubilization with TritonX-100.
The ability of each compound to bind to each of the α1-AR subtypes was assessed in a receptor binding assay. […] Scintillation fluid (25 mL) was added to each well, and the filter plate was counted in a Packard Topcount scintillation counter. Data was analyzed using GraphPad Prism software.

[5] = read-out: α1a IC50, Tables A-J, [125I]-HEAT 50 pM, COS membranes
[6] = read-out: α1b IC50, Tables A-J, [125I]-HEAT 50 pM, COS membranes

Row | Compound | IC50 [1, 5] [pM] | IC50 [2, 6] [pM] | IC50 [3] [pM] | IC50 ([1]; read-out: activity in the α1a screen, stated in the preparative example) [pM] | IC50 ([2]; read-out: activity in the α1b screen, stated in the preparative example) [pM] | IC50 [4] [µM]
1 | COC(=O)[C@@H]1CCCN1Cc1ccc(CN2CCN(c3ccccc3OC)CC2)s1 | 23000 | 1.19e+06 | 30000 | – | – | –
2 | CC(C)Oc1ccccc1N1CCN(Cc2nc(CN3C(=O)CC4(CCCC4)CC3=O)co2)CC1 | 595000 | > 1e+07 | > 8.28e+06 | – | – | –
3 | CC(C)Oc1ccccc1N1CCN(Cc2nc(CN3C(=O)c4ccccc4C3=O)co2)CC1 | 163000 | > 1e+07 | > 8.38e+06 | – | – | –
4 | CC(C)Oc1ccccc1N1CCN(Cc2cc(CN3CCCCC3=O)n(C)n2)CC1 | 8800 | 642000 | 130000 | 317000 | > 1e+07 | 1.27
5 | CC(C)Oc1ccccc1N1CCN(Cc2cccc(CN3C(=O)CC4(CCCC4)CC3=O)n2)CC1 | 147000 | 3.32e+06 | 291000 | – | – | –

Read-outs that look alike come from different tables or passages of the source.
